Tests used:
[1] = Phase 1 MAD study of ALT-801: ketone body production; assay type: in vivo, human
Procedure: Blood samples are collected for evaluation of ketone bodies after the subject has fasted overnight for at least 10 hours, 1 day prior to the first and second doses, and 6 days after the last dose. Blood samples for evaluation of FGF-21 and adiponectin are collected after the subject has fasted overnight for at least 10. Following a minimum 10 hour fast, blood is collected for assessment of lipids, including cholesterol (total, HDL, LDL), Apo A and B, lipoprotein(a), TG, and tripalmitin, prior to the first dose and 6 days after the last dose of study medication, as indicated in Table 4. Blood is collected for the assessment of inflammatory markers, including TNF-α, hs-CRP, leptin, MCP-1, and IL-6 prior to the first dose and 6 days after the last dose of study medication, as indicated in Table 4. Glucose homeostasis is assessed by 24-hour CGM using a Dexcom G6 CGM during the periods indicated in Part 1 and Part 2.

[2] = Phase 1 study: pharmacokinetic (PK) parameters of ALT-801 in plasma; assay type: in vivo; details: human, 1.8 mg SC
Description: Pharmacokinetic (“PK”) parameters can be estimated using Phoenix® WinNonlin® version 8.1 or higher (Certara USA, Inc., Princeton, New Jersey). A non-compartmental approach consistent with the extravascular route of administration can be used for parameter estimation. The individual plasma concentration-time data can be used for pharmacokinetic calculations. In addition to parameter estimates for individual animals, descriptive statistics (e.g. mean, standard deviation, coefficient of variation, median, min, max) can be determined, as appropriate. Concentration values that are below the limit of quantitation can be treated as zero for determination of descriptive statistics and pharmacokinetic analysis. Embedded concentration values that are below the limit of quantitation can be excluded from pharmacokinetic analysis. All parameters can be generated from individual dual agonist peptide (or derivatives and/or metabolites thereof) concentrations in plasma from test article-treated groups on the day of dosing (Day 1). Parameters can be estimated using nominal dose levels, unless out of specification dose formulation analysis results are obtained, in which case actual dose levels can be used. Parameters can be estimated using nominal sampling times; if bioanalytical sample collection deviations are documented, actual sampling times can be used at the affected time points. […] Pharmacokinetic parameters can be calculated and presented in the units provided by the analytical laboratory (the order of magnitude can be adjusted appropriately for presentation in the report, e.g. h*ng/mL converted to h*μg/mL). Descriptive statistics (e.g., mean, standard deviation, coefficient of variation, median, min, max) and pharmacokinetic parameters can be determined to three significant figures, as appropriate. […] PK parameters to be determined, as data permit, can include but are not limited to the following: Cmax: Maximum observed concentration; DN Cmax: dose normalized maximum concentration, calculated as Cmax/dose; Tmax: time of maximum observed concentration; AUC0-t: area under the curve from time 0 to the time of the last measurable concentration, calculated using the linear trapezoidal rule; AUC0-96: area under the curve from time 0 to hour 96, calculated using the linear trapezoidal rule; DN AUC0-96: dose normalized AUC0-96, calculated as AUC0-96/dose; AUC0-inf: area under the curve from time 0 to infinity (Day 1 only), calculated as AUC0-inf=AUC0-t+Ct/λz, where Ct is the last observed quantifiable concentration and λz is the elimination rate constant; t1/2: elimination half-life, calculated as ln(2)/λz. Additional parameters and comparisons (e.g., sex ratios, dose proportionality ratios, etc.) can also be determined, as would be understood by those of ordinary skill in the art. […]

[3] = Example 6 planned Phase 1 study of ALT-801 in overweight and obese subjects with T2DM; details: SC once weekly up to 12 doses

CC[C@H](C)[C@H](NC(=O)[C@H](Cc1ccccc1)NC(=O)[C@H](CCC(=O)O)NC(=O)[C@@H]1CCCCNC(=O)CC[C@H](NC(=O)[C@H](CC(=O)O)NC(=O)[C@H](CC(C)C)NC(=O)[C@H](Cc2ccc(O)cc2)NC(=O)[C@H](CCCCN)NC(=O)[C@H](CO)NC(=O)[C@H](Cc2ccc(O)cc2)NC(=O)[C@H](CC(=O)O)NC(=O)[C@H](CO)NC(=O)[C@@H](NC(=O)[C@H](Cc2ccccc2)NC(=O)[C@@H](NC(=O)CNC(=O)[C@H](CCC(N)=O)NC(=O)C(C)(C)NC(=O)[C@@H](N)Cc2c[nH]cn2)[C@@H](C)O)[C@@H](C)O)C(=O)N[C@@H](CCCCNC(=O)[C@H]2O[C@@H](OCCCCCCCCCCCCCCCCCC(=O)O)[C@H](O)[C@@H](O)[C@@H]2O)C(=O)N[C@@H](C)C(=O)N[C@@H](C)C(=O)N1)C(=O)N[C@@H](CCC(N)=O)C(=O)N[C@@H](Cc1c[nH]c2ccccc12)C(=O)N[C@@H](CC(C)C)C(=O)N[C@@H](CC(C)C)C(=O)N[C@@H](CCC(N)=O)C(=O)N[C@H](C(N)=O)[C@@H](C)O [ALT-801, pemvidutide]
Ketone bodies, mean (SD) ([1]; Table 17, Baseline, 1.2 mg group): 2.2 (0.9) mmol/L
Ketone bodies, mean (SD) ([1]; Table 17, Baseline, 1.8 mg group): 1.3 (0.7) mmol/L
Ketone bodies, mean (SD) ([1]; Table 17, Baseline, 2.4 mg group): 1.8 (0.6) mmol/L
Ketone bodies, mean (SD) ([1]; Table 17, Week 12, 1.2 mg SC once weekly): 6.1 (10.2) mmol/L
Ketone bodies, mean (SD) ([1]; Table 17, Week 12, 1.8 mg SC once weekly): 9.3 (11.1) mmol/L
Ketone bodies, mean (SD) ([1]; Table 17, Week 12, 2.4 mg SC once weekly): 7.5 (3.8) mmol/L
Ketone bodies, mean (SD) ([1]; Table 23, Baseline, 1.2 mg group): 0.12 (0.05) mmol/L
Ketone bodies, mean (SD) ([1]; Table 23, Baseline, 1.8 mg group): 0.07 (0.04) mmol/L
Ketone bodies, mean (SD) ([1]; Table 23, Baseline, 2.4 mg group): 0.10 (0.04) mmol/L
Ketone bodies, mean (SD) ([1]; Table 23, Week 12, 1.2 mg SC once weekly): 0.34 (0.57) mmol/L
Ketone bodies, mean (SD) ([1]; Table 23, Week 12, 1.8 mg SC once weekly): 0.52 (0.62) mmol/L
Ketone bodies, mean (SD) ([1]; Table 23, Week 12, 2.4 mg SC once weekly): 0.42 (0.21) mmol/L
ketone body production, in words ([1]; in vivo): improved
AUC [2]: 3.4 µM·h
half-life ([2]; read-out: Half-life (t1/2) (converted)): 110 h
Cmax ([2]; read-out: Peak concentration (Cmax)): 0.0271 µM
Tmax ([2]; read-out: Time to peak concentration (Tmax)): 70 h
expected outcome of trial [3]: safe and tolerable
